Our source for the IC50 values is US20200361914A1, “SUBSTITUTED BENZENE AND 6,5-FUSED BICYCLIC HETEROARYL COMPOUNDS” (Epizyme, Inc., priority 2014, published 2020).

Protein sequences, listed by entry. Tags and fused reporters are not part of them.
UniProt Q15910, whole entry: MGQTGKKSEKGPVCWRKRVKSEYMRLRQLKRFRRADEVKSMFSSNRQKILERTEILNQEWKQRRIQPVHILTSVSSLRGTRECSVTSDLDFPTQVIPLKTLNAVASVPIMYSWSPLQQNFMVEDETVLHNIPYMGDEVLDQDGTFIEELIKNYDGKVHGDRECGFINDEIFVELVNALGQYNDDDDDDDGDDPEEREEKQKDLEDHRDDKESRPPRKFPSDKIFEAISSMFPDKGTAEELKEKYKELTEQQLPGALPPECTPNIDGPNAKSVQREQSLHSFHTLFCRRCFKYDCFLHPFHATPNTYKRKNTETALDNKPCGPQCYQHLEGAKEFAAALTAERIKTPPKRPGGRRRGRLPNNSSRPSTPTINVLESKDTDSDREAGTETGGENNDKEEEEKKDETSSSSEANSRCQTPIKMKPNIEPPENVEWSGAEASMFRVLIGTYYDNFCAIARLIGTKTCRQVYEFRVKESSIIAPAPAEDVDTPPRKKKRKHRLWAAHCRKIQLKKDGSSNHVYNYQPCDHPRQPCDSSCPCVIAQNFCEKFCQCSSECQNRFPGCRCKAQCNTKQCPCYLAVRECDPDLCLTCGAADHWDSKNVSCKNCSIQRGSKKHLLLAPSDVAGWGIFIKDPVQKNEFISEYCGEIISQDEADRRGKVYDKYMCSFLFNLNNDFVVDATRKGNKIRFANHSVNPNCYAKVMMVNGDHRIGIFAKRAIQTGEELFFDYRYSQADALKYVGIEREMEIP
UniProt Q15910, whole entry Y641F: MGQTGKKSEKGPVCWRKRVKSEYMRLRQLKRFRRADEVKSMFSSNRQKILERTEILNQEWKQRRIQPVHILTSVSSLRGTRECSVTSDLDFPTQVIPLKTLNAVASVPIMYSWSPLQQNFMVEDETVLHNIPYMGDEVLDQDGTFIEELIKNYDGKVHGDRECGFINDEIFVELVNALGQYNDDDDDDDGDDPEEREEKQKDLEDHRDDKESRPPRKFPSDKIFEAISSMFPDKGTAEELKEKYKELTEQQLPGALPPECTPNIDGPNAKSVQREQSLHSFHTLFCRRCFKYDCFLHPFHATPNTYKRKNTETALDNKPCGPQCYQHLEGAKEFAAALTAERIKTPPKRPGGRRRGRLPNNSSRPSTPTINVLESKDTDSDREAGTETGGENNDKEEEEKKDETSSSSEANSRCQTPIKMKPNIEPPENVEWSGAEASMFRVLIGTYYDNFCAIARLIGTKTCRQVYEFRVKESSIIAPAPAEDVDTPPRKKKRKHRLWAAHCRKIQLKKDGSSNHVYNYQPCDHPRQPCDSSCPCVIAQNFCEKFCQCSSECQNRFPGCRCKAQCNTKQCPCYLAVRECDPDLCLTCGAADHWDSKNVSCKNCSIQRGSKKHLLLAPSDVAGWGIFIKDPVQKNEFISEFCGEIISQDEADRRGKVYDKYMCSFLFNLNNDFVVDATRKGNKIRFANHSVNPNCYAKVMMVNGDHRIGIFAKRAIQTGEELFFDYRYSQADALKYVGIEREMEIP

Experiment [1] has as its target wild-type PRC2 enzyme (EZH2 WT) (Homo sapiens, UniProt Q15910). The experiment in a line: PRC2 enzyme assay on peptide substrate, wild-type EZH2.
Experiment [2] has as its target Y641 mutant PRC2 enzyme (EZH2 Y641) (Homo sapiens, UniProt Q15910, Y641F). The experiment in a line: PRC2 enzyme assay on peptide substrate, Y641 mutant EZH2.

A word on the IC50: it is the midpoint of a concentration-inhibition curve.

For the molecule `CCC(C)n1cc(C)c2c(C(=O)NCc3c(C)n(CC)[nH]c3=O)cc(-c3ccc(N4CCNCC4)nc3)cc21` (centres unmarked) [compound 30, 1-(sec-butyl)-N-((1-ethyl-5-methyl-3-oxo-2,3-dihydro-1H-pyrazol-4-yl)methyl)-3-methyl-6-(6-(piperazin-1-yl)pyridin-3-yl)-1H-indole-4-carboxamide], the IC50 lay in the range of 1000 to 10000 nM in experiment [1] and 100 to 1000 nM in experiment [2].
